For 11 molecules, IC50 results are on record in ChEMBL document CHEMBL4417631, “Oral peptide inhibitors of interleukin-23 receptor and their use to treat inflammatory bowel diseases” (2017).

The assay has as its target T1, Interleukin-23 receptor (Homo sapiens, UniProt Q5VWK5).
T1 sequence (Q5VWK5 whole entry): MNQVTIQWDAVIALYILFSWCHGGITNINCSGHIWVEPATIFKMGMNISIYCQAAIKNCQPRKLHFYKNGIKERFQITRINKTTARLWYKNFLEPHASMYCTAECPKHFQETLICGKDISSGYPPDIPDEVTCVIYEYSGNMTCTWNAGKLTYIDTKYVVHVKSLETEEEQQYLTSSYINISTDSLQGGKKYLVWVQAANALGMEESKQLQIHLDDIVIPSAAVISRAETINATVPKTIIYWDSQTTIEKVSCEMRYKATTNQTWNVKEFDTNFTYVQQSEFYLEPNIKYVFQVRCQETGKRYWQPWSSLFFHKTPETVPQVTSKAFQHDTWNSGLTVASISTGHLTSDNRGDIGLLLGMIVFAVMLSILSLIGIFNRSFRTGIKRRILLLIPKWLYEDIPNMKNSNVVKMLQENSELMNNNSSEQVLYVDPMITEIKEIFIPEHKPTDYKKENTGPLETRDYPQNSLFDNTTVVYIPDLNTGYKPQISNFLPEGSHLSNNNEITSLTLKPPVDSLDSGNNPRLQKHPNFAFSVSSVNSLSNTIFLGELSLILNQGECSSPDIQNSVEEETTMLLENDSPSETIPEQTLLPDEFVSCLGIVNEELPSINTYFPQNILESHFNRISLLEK
Description: Inhibition of interleukin-23 binding to human interleukin-23 receptor incubated for 2 hrs by competitive binding ELISA.
In turn, `CC(=O)N[C@@H](CS)C(=O)N[C@@H](CCC(N)=O)C(=O)N[C@H](C(=O)N[C@@H](Cc1c[nH]c2ccccc12)C(=O)N[C@@H](CCC(N)=O)C(=O)N[C@@H](CS)C(=O)N[C@@H](Cc1ccc(O)cc1)C(=O)N[C@@H](Cc1c[nH]c2ccccc12)C(=O)N[C@@H](CCC(C)C)C(=O)N1CCC[C@H]1C(=O)N[C@@H](CC(N)=O)C(=O)NCC(N)=O)[C@@H](C)O` returned an IC50 of 4.83 µM.

With `CC(=O)N[C@@H](CS)C(=O)N[C@@H](CCC(N)=O)C(=O)N[C@H](C(=O)N[C@@H](Cc1c[nH]c2ccccc12)C(=O)N[C@@H](CCC(N)=O)C(=O)N[C@@H](CS)C(=O)N[C@@H](Cc1ccc(O)cc1)C(=O)N[C@@H](Cc1c[nH]c2ccccc12)C(=O)N[C@@H](CCCNC(=N)N)C(=O)N[C@@H](CC(N)=O)C(=O)N[C@@H](Cc1ccccc1)C(=O)N[C@@H](CCC(=O)O)C(=O)N[C@@H](CO)C(=O)NCC(N)=O)[C@@H](C)O`, the IC50 was found to be 0.315 µM.

Regarding `CC(=O)N[C@@H](CS)C(=O)N[C@@H](CCC(N)=O)C(=O)N[C@H](C(=O)N[C@@H](Cc1c[nH]c2ccccc12)C(=O)N[C@@H](CCC(N)=O)C(=O)N[C@@H](CS)C(=O)N[C@@H](Cc1ccc(O)cc1)C(=O)N[C@@H](Cc1c[nH]c2ccccc12)C(=O)N[C@@H](CCCNC(=N)N)C(=O)N[C@H](CC(=O)N[C@H](C(=O)N[C@@H](CC(N)=O)C(=O)NCC(=O)NCCOCC(=O)N[C@H](CCCCN)C(N)=O)C(C)C)CC(C)C)[C@@H](C)O`, the IC50 was found to be 0.311 µM.

Consider `CC(=O)N[C@@H](CS)C(=O)N[C@@H](CCC(N)=O)C(=O)N[C@H](C(=O)N[C@@H](Cc1c[nH]c2ccccc12)C(=O)N[C@@H](CCC(N)=O)C(=O)N[C@@H](CS)C(=O)N[C@@H](Cc1ccc(O)cc1)C(=O)N[C@@H](Cc1c[nH]c2ccccc12)C(=O)N[C@@H](CCCNC(=N)N)C(=O)N[C@H](CC(=O)N[C@H](C(=O)N[C@@H](CC(N)=O)C(=O)NCC(=O)NCCOCC(=O)N[C@H](CCCCN)C(N)=O)C(C)C)C(C)C)[C@@H](C)O`, for which the IC50 was determined as 0.501 µM.

With `CC(=O)N[C@@H](CS)C(=O)N[C@@H](CCC(N)=O)C(=O)N[C@H](C(=O)N[C@@H](Cc1c[nH]c2ccccc12)C(=O)N[C@@H](CCC(N)=O)C(=O)N[C@@H](CS)C(=O)N[C@@H](Cc1ccc(O)cc1)C(=O)N[C@@H](Cc1c[nH]c2ccccc12)C(=O)N[C@@H](CCCNC(=N)N)C(=O)N[C@@H](C)CC(=O)N[C@@H](CC(N)=O)C(=O)NCC(=O)NCCOCC(=O)N[C@H](CCCCN)C(N)=O)[C@@H](C)O`, the IC50 is 0.457 µM.

Turning to `CC(=O)N[C@@H](CS)C(=O)N[C@@H](CCC(N)=O)C(=O)N[C@H](C(=O)N[C@@H](Cc1c[nH]c2ccccc12)C(=O)N[C@@H](CCC(N)=O)C(=O)N[C@@H](CS)C(=O)N[C@@H](Cc1ccc(O)cc1)C(=O)N[C@@H](Cc1c[nH]c2ccccc12)C(=O)N[C@@H](CCC(C)C)C(=O)N[C@H](C(=O)N[C@@H](CC(N)=O)C(=O)NCC(N)=O)[C@@H](C)O)[C@@H](C)O`, the 50% inhibitory concentration (IC50) amounted to 0.109 µM.

For `CC(=O)N[C@@H](CS)C(=O)N[C@@H](CCC(N)=O)C(=O)N[C@H](C(=O)N[C@@H](Cc1c[nH]c2ccccc12)C(=O)N[C@@H](CCC(N)=O)C(=O)N[C@@H](CS)C(=O)N[C@@H](Cc1ccc(O)cc1)C(=O)N[C@@H](Cc1c[nH]c2ccccc12)C(=O)N[C@@H](CCC(C)C)C(=O)N[C@@H](CCC(=O)O)C(=O)N[C@@H](CC(N)=O)C(=O)NCC(=O)N[C@@H](CC(C)C)C(N)=O)[C@@H](C)O`, the 50% inhibitory concentration (IC50) was 0.174 µM.

`CC(=O)N[C@@H](CS)C(=O)N[C@@H](CCC(N)=O)C(=O)N[C@H](C(=O)N[C@@H](Cc1c[nH]c2ccccc12)C(=O)N[C@@H](CCC(N)=O)C(=O)N[C@@H](CS)C(=O)N[C@@H](Cc1ccc(O)cc1)C(=O)N[C@@H](Cc1c[nH]c2ccccc12)C(=O)N[C@@H](CCCNC(=N)N)C(=O)N[C@H](CC(=O)N[C@@H](CC(N)=O)C(=O)NCC(=O)NCCOCC(=O)N[C@H](CCCCN)C(N)=O)CC(C)C)[C@@H](C)O` returned an IC50 of 0.224 µM.

In turn, `CC(=O)N[C@@H](CS)C(=O)N[C@@H](CCCNC(=N)N)C(=O)N[C@H](C(=O)N[C@@H](Cc1c[nH]c2ccccc12)C(=O)N[C@@H](CCC(N)=O)C(=O)N[C@@H](CS)C(=O)N[C@@H](Cc1ccc(O)cc1)C(=O)N[C@@H](Cc1c[nH]c2ccccc12)C(=O)N[C@@H](CCC(N)=O)C(=O)N[C@@H](CCC(=O)O)C(=O)N[C@@H](CCCCN)C(=O)NCC(=O)N[C@H](C(=O)N[C@@H](CC(=O)O)C(N)=O)[C@@H](C)O)[C@@H](C)O` gave a half-maximal inhibitory concentration (IC50) of 0.118 µM.

Take `CC(=O)N[C@@H](CS)C(=O)N[C@@H](CCC(N)=O)C(=O)N[C@H](C(=O)N[C@@H](Cc1c[nH]c2ccccc12)C(=O)N[C@@H](CCC(N)=O)C(=O)N[C@@H](CS)C(=O)N[C@@H](Cc1ccc(O)cc1)C(=O)N[C@@H](Cc1c[nH]c2ccccc12)C(=O)N[C@@H](CCCNC(=N)N)C(=O)N[C@@H](C)CC(=O)N[C@H](C(=O)N[C@@H](CC(N)=O)C(=O)NCC(=O)NCCOCC(=O)N[C@H](CCCCN)C(N)=O)C(C)C)[C@@H](C)O`: the IC50 stood at 0.355 µM.

Molecule `CC(=O)N[C@@H](CS)C(=O)N[C@@H](CCC(N)=O)C(=O)N[C@H](C(=O)N[C@@H](Cc1c[nH]c2ccccc12)C(=O)N[C@@H](CCC(N)=O)C(=O)N[C@@H](CS)C(=O)N[C@@H](Cc1ccc(O)cc1)C(=O)N[C@@H](Cc1c[nH]c2ccccc12)C(=O)N[C@@H](CCC(C)C)C(=O)N[C@@H](CCC(=O)O)C(=O)N[C@H](C(=O)NCC(N)=O)[C@@H](C)O)[C@@H](C)O` showed an IC50 of 0.818 µM.
